Results published in ChEMBL document CHEMBL1147560, “Thioxanthene-derived analogs as sigma(1) receptor ligands” (Bioorg Med Chem Lett, 2004).

By UniProt entry, the sequences of proteins in these tests, tags left out.
UniProt Q99720, whole entry: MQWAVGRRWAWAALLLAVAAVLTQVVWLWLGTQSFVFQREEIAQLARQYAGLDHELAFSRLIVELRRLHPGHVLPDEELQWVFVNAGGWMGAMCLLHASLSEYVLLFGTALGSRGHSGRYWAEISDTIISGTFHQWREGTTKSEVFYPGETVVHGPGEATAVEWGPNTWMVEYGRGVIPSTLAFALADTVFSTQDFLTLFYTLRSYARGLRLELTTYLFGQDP

Target: Sigma non-opioid intracellular receptor 1 (Homo sapiens, UniProt Q99720)
Assay: Binding affinity for Sigma receptor type 1,using [3H](+)-pentazocine as radioligand

SMILES | Ki [nM]
C(CCCNCCc1ccccc1)=C(c1ccccc1)c1ccccc1 | 1.3
CC1CCN(CCCC=C(c2ccccc2)c2ccccc2)CC1 | 0.13
